According to patent US20220002429A1, “TUMOR CELL AGGREGATION INHIBITORS' FOR TREATING CANCER” (Northwestern University, priority 2018, published 2022):

Tested on: TN1 PDX tumor cells
Experiment: ex vivo aggregation (clustering) assay of dissociated PDX tumor cells, IncuCyte time-lapse imaging
Format: cell-based, human
Details: neutralizing antibodies; IgG vs anti-EGFR, mab EGFR vs Cetuximab
Experimental: Hyaluronan inhibition. Two complementary approaches were utilized to inhibit hyaluronan, the known CD44 ligand, in the two models. First, for the TN PDX model, dissociated cells were treated with hyaluronan antagonist (o-HA, HA oligomers) at 100 μg/mL during the 72-hour aggregation assays. For MDA-MB-231 cells, the hyaluronic acid synthase inhibitor 4-methylumbelliferone (4-MU, 0.4 mM/L) was added to the adherent culture. After 48 h of treatment, the cells were trypsinized and transferred to a poly-hydroxyethyl methacrylate (Poly-HEMA, Sigma-Aldrich) coated plate, and the images were taken at the indicated times by Leica microscopy.
Cell clustering assay. Freshly dissociated primary tumor cells in single cell suspension were seeded in collagen type I-coated 96-well plates. The plates were put into the IncuCyte live cell imaging system (Essen BioScience), and live images were taken every 2-4 h for up to one week. The cluster number and size were analyzed by Incucyte ZOOM software (Essen BioScience). In specific experiments, primary tumor cells might be sorted based on the expression of CD44 prior to seeding. In other experiments, seeded tumor cells might be transfected with siRNAs (100 nM) or treated with various inhibitors during the clustering assays. […]
Cell clustering assay. […] The cluster number and size were analyzed by Incucyte ZOOM software (Essen BioScience). […]

Cetuximab: FDA approved EGFR monoclonal antibody
clustering formation of TN PDX tumor cells: instead of Cetuximab
